Source: publication PMC11851449, “Blm10-Based Compounds Add to the Knowledge of How Allosteric Modulators Influence Human 20S Proteasome” (ACS Chemical Biology, 2025)

Experiments:
[1] = test system: T1, human 20S proteasome; assay: Susceptibility of modulators to digestion by h20S, HPLC; format: in vitro ADME; conditions: incubation with h20S for 1 or 3 hours
T1 construct: 20S proteasome was isolated from human erythrocytes; from tissue; host or cells: human erythrocytes
Text: Analyzing by HPLC the stability of the modulators in the presence of h20S proteasome, we also excluded the possibility that the lower stimulating capacity is due to increased competition with the substrate. If the action of the modulators was based solely on competition, the compounds degraded to a greater extent would impede the access of a fluorogenic substrate to the proteolytic site, resulting in diminished fluorescence. The effect that we observed, however, was exactly the opposite. […] This provides indirect evidence for an allosteric mechanism of action of Blm peptides, analogous to that of the 19S or PA200 activators. This action probably loosens the conformation of the gate leading to the catalytic channel, increasing the dynamics of its alternation between the closed and open states, thereby allowing the entry and degradation of both substrates and modulators.
Figure S9. A. Susceptibility of modulators to be substrates of the human 20S proteasome,
assessed using HPLC. Percentage of the undigested modulator was calculated based on the
area under the peak corresponding to the modulator. B. Example chromatograms recorded for
peptides alone (red) and peptides after incubation with h20S for 1 (green) or 3 hours (blue). […]

[2] = target: T1, human 20S proteasome; assay: ChT-L peptidase activity of latent h20S probed with Suc-LLVY-AMC; format: biochemical; conditions: concentration giving 50% of maximal activation; latent h20S 2.8 nM, substrate 100 μM, Tris/HCl pH 8.0, 37 °C; at least three independent experiments
Experimental: (§1) The capacity of influencing the human 20S proteasome was examined using the latent enzyme isolated from human erythrocytes. Boc-LRR-AMC, Z-LLE-AMC, and Suc-LLVY-AMC fluorogenic substrates (Enzo Life Sciences Inc.) were used for assessment of the trypsin-, caspase-, and chymotrypsin-like activities, respectively. As an additional probe, we utilized a homemade FRET-type substrate DabEDS (Lys(Dabcyl)-[…]EDANS)-Gly[36]). Stock solutions of the substrates and modulators were prepared in dimethyl sulfoxide (DMSO). […] The activity assays were performed in a 96-well plate format in 50 mM Tris/HCl, pH 8.0. The CP was used at a final concentration of 0.002 mg mL^–1 (2.8 nM). The final concentrations of LLVY, LRR, and LLE substrates were 100 μM and DabEDS 15 μM. The concentration of reagents in the tests with inhibitors was as follows: 10 μM bortezomib (tebu-bio), 50 μM leupeptin (Roth), and 10 μM activators. The release of the aminomethylcoumarin (AMC) reporter group was followed by monitoring the fluorescence emission at 460 nm (λex was 380 nm). DabEDS hydrolysis was detected by measuring the emission at 493 nm, while the excitation wavelength was set at 335 nm. Fluorescence measurements were carried out using an Infinite M200 Pro plate reader (Tecan), every 2 min for up to 60 min at 37 °C. All activity assays were performed in at least three independent replicates.

[3] = target: T1, human 20S proteasome; assay: Degradation of FRET-type polypeptide substrate DabEDS by h20S; format: biochemical; conditions: concentration giving 50% of maximal activation; latent h20S 2.8 nM, DabEDS 15 μM, Tris/HCl pH 8.0, 37 °C; at least three independent experiments
Experimental: as §1

[4] = target: human 20S proteasome (human) (UniProt P60900)
[5] = target: human 20S proteasome (human) (UniProt P60900); remark: listed apart in the source

Row | Compound | stability of modulator in the presence of h20S (undigested modulator by HPLC peak area) [1] | EC50 [2] | EC50 [3] | EC50 of stimulation of Suc-LLVY-AMC degradation (ChT-L peptidase) by isolated latent h20S [4] | EC50 of stimulation of degradation of the FRET-type substrate DabEDS by isolated latent h20S [5]
1 | CC(C)C[C@H](NC(=O)[C@@H]1CCCN1C(=O)[C@H](CCCCN)NC(=O)[C@H](CCC(N)=O)NC(=O)[C@@H](NC(=O)[C@H](Cc1ccccc1)NC(=O)[C@@H](N)CCCCN)[C@@H](C)O)C(=O)N[C@@H](Cc1c[nH]c2ccccc12)C(=O)N[C@@H](CCCNC(=N)N)C(=O)N[C@@H](CO)C(=O)N[C@@H](Cc1ccc(O)cc1)C(=O)N[C@@H](Cc1ccc(O)cc1)C(=O)N[C@@H](C)C(=O)O [Compound 2] | digested the most rapidly | – | – | – | –
2 | C[C@@H](O)[C@H](NC(=O)[C@H](Cc1ccccc1)NC(=O)[C@H](Cc1ccc(O)cc1)NC(=O)[C@@H](N)CCCCN)C(=O)NCC(=O)N[C@@H](CO)C(=O)N[C@@H](CCCCN)C(=O)N[C@@H](CC(=O)O)C(=O)N[C@@H](Cc1ccc(O)cc1)C(=O)N[C@@H](CCCNC(=N)N)C(=O)N[C@@H](CCCNC(=N)N)C(=O)N[C@@H](Cc1ccc(O)cc1)C(=O)N[C@@H](Cc1ccc(O)cc1)C(=O)N[C@@H](CO)C(=O)O [Compound 14] | digested the most rapidly | – | – | – | –
3 | C[C@@H](O)[C@H](NC(=O)[C@H](Cc1ccc(O)cc1)NC(=O)[C@H](Cc1ccc(O)cc1)NC(=O)[C@H](CO)NC(=O)[C@H](CCCNC(=N)N)NC(=O)[C@H](Cc1c[nH]c2ccccc12)NC(=O)[C@H](CCC(=O)O)NC(=O)[C@H](CCCCN)NC(=O)[C@H](CO)NC(=O)CNC(=O)[C@@H](NC(=O)[C@H](Cc1ccccc1)NC(=O)[C@H](Cc1ccc(O)cc1)NC(=O)[C@@H](N)CCCCN)[C@@H](C)O)C(=O)O [Compound 17] | digested the most rapidly | 3.52 ± 0.28 µM | 3.21 ± 0.78 µM | – | –
4 | C[C@@H](O)[C@H](NC(=O)[C@H](Cc1ccccc1)NC(=O)[C@H](Cc1ccc(O)cc1)NC(=O)[C@@H](N)CCCCN)C(=O)NCC(=O)N[C@@H](CO)C(=O)N[C@@H](CCCCN)C(=O)N[C@@H](CC(=O)O)C(=O)N[C@@H](Cc1c[nH]c2ccccc12)C(=O)N[C@@H](CCCNC(=N)N)C(=O)N[C@@H](CO)C(=O)N[C@@H](Cc1ccc(O)cc1)C(=O)N[C@@H](Cc1ccc(O)cc1)C(=O)N[C@@H](CO)C(=O)O [Compound 18] | strong degradation; also recorded: digested the most rapidly | 3.49 ± 0.36 µM | 2.64 ± 0.6 µM | – | –
5 | C[C@@H](O)[C@H](NC(=O)[C@H](Cc1ccccc1)NC(=O)[C@H](Cc1ccc(O)cc1)NC(=O)[C@@H](N)CCCCN)C(=O)NCC(=O)N[C@@H](CO)C(=O)N[C@@H](CCCCN)C(=O)N[C@@H](CC(=O)O)C(=O)N[C@@H](Cc1c[nH]c2ccccc12)C(=O)N[C@@H](CCCNC(=N)N)C(=O)N[C@@H](CO)C(=O)N[C@@H](Cc1ccc(O)cc1)C(=O)N[C@@H](CC(=O)O)C(=O)N[C@@H](CO)C(=O)O [Compound 19] | not a substrate of the proteasome; also recorded: resistant to proteolytic degradation | – | – | – | –
6 | compound 17 (Blm-pep analog) (peptide) | – | – | – | 3.52 µM | 3.21 µM
7 | compound 18 (Blm-pep analog) (peptide) | – | – | – | 3.49 µM | 2.64 µM

“Also recorded” adds a separate entry of the source.
